Experimental data taken from ChEMBL document CHEMBL4765390, “Discovery of carboxyl-containing biaryl ureas as potent RORγt inverse agonists” (Eur J Med Chem, 2020).

Legend:
[1] = biological target: T1, Nuclear receptor ROR-gamma (Mus musculus) (UniProt P51450); test: Inverse agonist activity at RORgammat in mouse CD4+ T cells assessed as inhibition of differentiation into Th17 cells by measuring IL-17 production at 0.3 uM by flow cytometry relative to control; type: cell-based; conditions: CD4+ve Th, filed as inverse agonist
T1 sequence (whole entry): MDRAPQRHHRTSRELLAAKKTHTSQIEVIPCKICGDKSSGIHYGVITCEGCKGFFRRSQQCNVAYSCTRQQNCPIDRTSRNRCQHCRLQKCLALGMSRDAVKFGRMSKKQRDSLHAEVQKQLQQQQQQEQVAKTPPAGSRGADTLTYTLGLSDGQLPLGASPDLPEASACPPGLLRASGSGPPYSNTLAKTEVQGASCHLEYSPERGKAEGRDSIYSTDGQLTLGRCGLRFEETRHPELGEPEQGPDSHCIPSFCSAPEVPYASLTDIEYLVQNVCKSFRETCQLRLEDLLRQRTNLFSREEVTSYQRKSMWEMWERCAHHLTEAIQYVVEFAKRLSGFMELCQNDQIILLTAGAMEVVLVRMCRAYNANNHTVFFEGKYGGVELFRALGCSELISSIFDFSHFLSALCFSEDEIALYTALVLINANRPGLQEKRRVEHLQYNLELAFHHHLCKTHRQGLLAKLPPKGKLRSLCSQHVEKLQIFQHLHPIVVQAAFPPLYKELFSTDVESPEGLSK

Mus musculus [2] = test: Protection against imiquimod-induced psoriasis in BALB/c mouse model assessed as reduction in ear erythema at 25 mg/kg, po dosed twice daily relative to control; type: functional, organism-based
Mus musculus [3] = test: Protection against imiquimod-induced psoriasis in BALB/c mouse model assessed as reduction in back skin erythema at 25 mg/kg, po dosed twice daily relative to control; type: functional, organism-based
Mus musculus [4] = test: Protection against imiquimod-induced psoriasis in BALB/c mouse model assessed as reduction of skin scaling at 25 mg/kg, po dosed twice daily relative to control; type: functional, organism-based

`CCS(=O)(=O)c1ccc(CC(=O)Nc2cc(Cl)c(-c3ccccc3OC(F)(F)F)c(Cl)c2)cc1` was tested, and the inhibition [1] was 84%.

With `O=C(O)Cc1ccc(CNC(=O)Nc2cc(Cl)c(-c3ccccc3OC(F)(F)F)c(Cl)c2)cc1` the inhibition [1] was 76%, the Activity (Mus musculus [2]) was “Active” and the Activity (Mus musculus [3]) was “Active”. The Activity (Mus musculus [4]) was “Active”.

Calls of active or inactive are those of the source. No cut-off for these calls is given here.
